Earlier results in US20190038588A1, “NOVEL CLASS OF COMPOUNDS FOR THE TREATMENT OF CARDIOVASCULAR DISEASE” (STICHTING KATHOLIEKE UNIVERSITEIT, priority 2016, published 2019).

Target: T1, HMG-CoA reductase (Homo sapiens, UniProt P04035)
T1 sequence (P04035 1-888): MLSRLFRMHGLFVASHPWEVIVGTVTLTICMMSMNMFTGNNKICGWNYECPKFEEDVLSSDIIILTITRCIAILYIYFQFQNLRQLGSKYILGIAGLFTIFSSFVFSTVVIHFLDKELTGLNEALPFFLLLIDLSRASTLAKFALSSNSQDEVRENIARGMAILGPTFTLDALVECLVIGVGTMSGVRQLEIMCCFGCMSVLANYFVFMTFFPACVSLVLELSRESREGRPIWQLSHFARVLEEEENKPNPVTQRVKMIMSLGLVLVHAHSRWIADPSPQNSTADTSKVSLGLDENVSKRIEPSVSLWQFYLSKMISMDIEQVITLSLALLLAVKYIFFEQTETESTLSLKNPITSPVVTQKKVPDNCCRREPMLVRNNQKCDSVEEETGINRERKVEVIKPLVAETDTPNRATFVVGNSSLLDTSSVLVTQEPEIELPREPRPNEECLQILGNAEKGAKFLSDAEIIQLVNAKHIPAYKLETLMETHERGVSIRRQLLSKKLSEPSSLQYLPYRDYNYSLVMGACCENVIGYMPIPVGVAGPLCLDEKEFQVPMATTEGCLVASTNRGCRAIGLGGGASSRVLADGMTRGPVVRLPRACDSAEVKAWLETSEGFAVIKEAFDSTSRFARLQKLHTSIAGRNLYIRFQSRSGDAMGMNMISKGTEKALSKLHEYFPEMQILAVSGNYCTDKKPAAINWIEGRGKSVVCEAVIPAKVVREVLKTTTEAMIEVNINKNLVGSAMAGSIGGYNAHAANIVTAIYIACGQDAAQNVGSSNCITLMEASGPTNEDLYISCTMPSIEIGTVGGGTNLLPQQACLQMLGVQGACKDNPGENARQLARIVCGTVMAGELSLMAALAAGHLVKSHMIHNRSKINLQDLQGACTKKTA
Details: Kajinami K, 2003; Istvan ES, 2001; cited from earlier work

CC(C)c1c(C(=O)Nc2ccccc2)c(-c2ccccc2)c(-c2ccc(F)cc2)n1CC[C@@H](O)C[C@@H](O)CC(=O)O [atorvastatin carboxylic acid, reference compound]
IC50: 0.008 µM

CC[C@H](C)C(=O)O[C@H]1C[C@H](O)C=C2C=C[C@H](C)[C@H](CC[C@@H](O)C[C@@H](O)CC(=O)O)[C@H]21 [pravastatine]
IC50: 0.046 µM
